Experiment: antacid activity in simulated gastric juice (modified Holbert technique, automatic titrator)
Format: physicochemical
Conditions: for Vol. of gastric juice added: added at 0.7 ml/min. until pH fell below 3; for pH of suspension after 1 min.: about 0.125 g powder in 20 ml, 37° C.
Method: Approximately 0.125 g of powder was added to 20 ml of simulated gastric juice (U.S.P.) and stirred vigorously at 37° C. The pH was registered at 1, 5 and 10 minutes and then the automatic burette was started and synthetic gastric juice was added at a rate of 0.7 ml/min. until the pH fell below 3. The time taken and the amount of gastric juice added to reach pH 3 was observed.

[1] = gastric juice SP, without pepsin

hydrotalcite
Vol. of gastric juice added (gastric juice DP, double quantity of pepsin): 12.20 mL
pH of suspension after 1 min. (gastric juice DP, with double quantity of pepsin): 3.16
pH of suspension after 1 min. (gastric juice N, normal U.S.P. simulated gastric juice): 3.42
Vol. of gastric juice added (gastric juice N, normal U.S.P.): 13.55 mL
pH of suspension after 1 min. [1]: 3.52
Vol. of gastric juice added [1]: 13.5 mL
velocity of neutralisation (pH after 1 minute in the optimal zone, pH 3-5): high velocity of neutralisation
